In patent US20260199261A1, “SOLID COMPOSITION CONTAINING CO-CRYSTAL OF REDUCED COENZYME Q10” (KANEKA CORPORATION, priority 2023, published 2026):

Assay: Oxidation stability evaluation: QH residual rate (change in QH ratio by HPLC) after storage
Type: physicochemical
Settings: storage at 40° C. and 75% RH for 30 days
Procedure: The weight ratio of the reduced coenzyme Q10 to the total coenzyme Q10 (i.e., reduced coenzyme Q10/(oxidized coenzyme Q10+reduced coenzyme Q10)) is defined as a “QH ratio”. The QH ratio was determined by the following HPLC analysis. For the evaluation of oxidation stability, a rate of the change in the QH ratio at the end of the evaluation from that at the beginning of the evaluation was defined as “QH residual rate”, and the QH residual rate determined by the following formula was used as a measure of oxidation stability.
• Column: SYMMETRY C18 (manufactured by Waters Corporation); 250 mm (in length) and 4.6 mm (in inner diameter) • Mobile phase: C2H5OH:CH3OH=4:3 (v:v) • Detection wavelength: 210 nm • Flow rate: 1 mL/min […]
The reduced coenzyme Q10/nicotinamide co-crystal in an amount of 1 g each was weighed into two 30-ml glass vials (under the operating environment of 28° C. and 50% RH). One of the vials was kept in an open state, the other vial was hermetically sealed with a screw cap (sealed state), these vials were stored under the environment of 40° C. and 75% RH for 30 days, and the residual rate of reduced coenzyme Q10 was evaluated. […]

Substance: reduced coenzyme Q10/nicotinamide co-crystal [compound 2]
- QH residual rate (%) Sealed state (vial hermetically sealed with screw cap): 92.9%
- QH residual rate (%) Open state (vial in open state): 90.9%
